Values quoted from earlier work in patent publication US20090054493A1, “THIAZOLE DERIVATIVES AS PPAR DELTA LIGANDS AND THEIR MANUFACTURING PROCESS” (priority 2005, published 2009).

Protein sequences, listed by entry. Tags and fused reporters are not part of them. Lines headed by an entry give the natural chain unless they say otherwise; changes in a name come on top.
UniProt Q03181, whole entry: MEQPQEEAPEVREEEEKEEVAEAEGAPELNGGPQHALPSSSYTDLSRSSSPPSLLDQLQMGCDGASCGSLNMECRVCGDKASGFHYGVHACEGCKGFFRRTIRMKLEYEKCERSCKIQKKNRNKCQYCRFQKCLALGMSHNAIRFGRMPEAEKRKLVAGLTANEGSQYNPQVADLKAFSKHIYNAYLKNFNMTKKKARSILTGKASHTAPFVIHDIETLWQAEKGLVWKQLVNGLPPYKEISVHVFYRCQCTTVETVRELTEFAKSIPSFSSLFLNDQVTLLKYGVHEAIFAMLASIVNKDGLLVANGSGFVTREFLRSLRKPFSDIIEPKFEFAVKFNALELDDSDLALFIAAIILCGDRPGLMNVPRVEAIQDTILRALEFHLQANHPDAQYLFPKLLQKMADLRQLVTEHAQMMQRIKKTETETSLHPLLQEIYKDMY

Molecular target: PPARδ (Homo sapiens, UniProt Q03181)
Details: background art; cited from earlier work

Structure (SMILES): CCCc1c(OCCCSc2ccc(CC(=O)O)cc2Cl)ccc2c(C(F)(F)F)noc12
- selectivity for other hPPAR subtypes: no selectivity
